The values below come from patent US20230083670A1.

pIC50: −log10 of the molar value.

For assay [1], the target named is CD47 on Jurkat cells (UniProt Q08722). The assay can be described thus: blocking of SIRPa-Fc binding to CD47, flow cytometry; Raji-PD-L1 cells.
Assay [2] shares this target. Put plainly: blocking of SIRPa-Fc binding to CD47, flow cytometry; PD-L1 negative Raji cells. A general note: A flow cytometer gives signals particle by particle.

As usually defined, the pIC50 is the negative decadic logarithm of the IC50, by convention in mol/L. IMM01: the pIC50 with CD47 on Jurkat cells [1] was 7.26; with CD47 on Jurkat cells [2], 7.07.
